The values that follow come from patent US11166940B2, “Treatment of cardiac disorders by blocking SK4 potassium channel” (Ramot at Tel-Aviv University Ltd., priority 2016, dated 2021).

Structures are written as SMILES. Like-named read-outs stand apart in the source and are kept apart here.

The test concerns the target SK4 K+ currents (Homo sapiens, UniProt O15554). As to conditions: for cells in which TRAM-34 sensitive currents were observed: 5 μM TRAM-34. The protocol: The spontaneous automaticity of isolated SAN cells was recorded under perforated-patch conditions by adding 30 μM β-escin49 to the intracellular solution containing (in mM): 130 KCl, 10 NaCl, 10 HEPES, 0.2 EGTA-KOH, 2 MgATP, 6.6 Phosphocreatine, 0.05 cAMP and 1 μM free Ca^2+ (pH 7.2). To record SK4 K+ current, a voltage ramp protocol was applied. SAN and hiPS-CMs were held at −40 mV and −20 mV, respectively to substantially inactivate voltage-gated Na^+ and Ca^2+ currents. Cells were stepped from −90 mV to +60 mV for 150 ms. Then, a cocktail (solution 1) containing (in mM) 0.3 cadmium, 0.025 ZD-7288 and 0.01 E-4031 was applied extracellularly to inhibit residual L-type and T-type voltage-gated Ca2+ currents, If and the IKr currents, respectively. […] For voltage-clamp recording of SAN cells, the intracellular solution was the same to that described above for recording spontaneous automaticity.

Turning to `Clc1ccccc1C(c1ccccc1)(c1ccccc1)n1cccn1` [TRAM-34, 1-[(2-chlorophenyl)diphenylmethyl]-1H-pyrazole], the “currents remaining in solution 1 (inward and outward)” value (5 μM TRAM-34 added to solution 1, 1 μM internal free Ca2+, normal and CPVT2 hiPS-CMs) is “decreased the currents in both inward and outward directions”. For the same compound, the “cells in which TRAM-34 sensitive currents were observed” value reads like this: (CPVT2 hiPSC-CMs) 9 out of 13; (normal hiPS-CMs) 7 out of 15.
